Results as given in PubChem BioAssay AID651560 (Sanford-Burnham Center for Chemical Genomics, 2012).
Only a part is listed here, and it is no random draw. Some results for these compounds are left out of this collection, so the calls shown say nothing about other tests. Active and inactive are the calls of the source.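 Rule for the calls: active = compounds that cut the enzyme signal by at least half of the control window in the single-dose screen; inactive = the rest.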

Amino acid sequences for entries named in this document (tags omitted).
UniProt P24666, whole entry: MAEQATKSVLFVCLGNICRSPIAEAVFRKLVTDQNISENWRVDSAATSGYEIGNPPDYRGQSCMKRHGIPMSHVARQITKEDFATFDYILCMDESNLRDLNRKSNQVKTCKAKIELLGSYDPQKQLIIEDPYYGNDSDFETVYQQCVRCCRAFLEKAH

Target: Low molecular weight phosphotyrosine protein phosphatase (Homo sapiens) (UniProt P24666)
Assay: LMPTP phosphatase inhibitors, primary screen, biochemical, fluorescence intensity, uHTS (AID 651560);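 note: plate controls were DMSO wells with enzyme plus substrate for no effect and substrate without enzyme for full effect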
Conditions: recombinant LMPTP-A, OMFP fluorogenic substrate, at 20 µM, active compounds read high
Outline: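 test system = LMPTP-A | amount = 0.625 nM LMPTP-A final | reagent = fluorogenic phosphatase substrate OMFP at 400 µM final | incubation = 50 min at room temperature | benchmarks = no-enzyme low control, uninhibited high control | medium = Bis-Tris pH 6.0, DTT, detergent | signal = fluorescence intensity of OMFP turnover product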

SMILES | inhibition
O=C(NCC1(N2CCCCC2)CCCCC1)c1cc([N+](=O)[O-])ccc1Cl | inactive: -0.491%
CN1[C@@H]2CC[C@H]1CC(OC(=O)C(O)(c1ccccc1)c1ccccc1)C2 (stereo partly specified) | inactive: -2.06%
CC(C)N1C(=O)CC2(CCN(CCOC(=O)C(O)(c3ccccc3)c3ccccc3)CC2)C1=O | inactive: -0.194%
COc1cc(SC)ccc1C(=O)NCC1(N(C)C)CCCCC1 | inactive: -1.31%
CCN(CC)CC(C)C(C)OC(=O)C(O)(c1ccccc1)c1ccccc1 (stereo unspecified) | inactive: -1.01%
Cc1ccc(C(=O)NCC2(N3CCCCC3)CCCCC2)cc1 | inactive: 1.49%
CN(C)c1ccc(C(=O)NCC2(N(C)C)CCCCC2)cc1 | inactive: -0.262%
CN(C)C1CCCC1OC(=O)C(O)(c1ccccc1)c1ccccc1 (stereo unspecified) | inactive: -2.05%
Cc1ccccc1C(=O)NCC1(N2CCCCC2)CCCCC1 | inactive: 0.153%
O=C(NCC1(N2CCCCC2)CCCCC1)c1cc(F)c(F)cc1Cl | inactive: -0.459%
C=CCN1CCN(CCOC(=O)C(O)(c2ccccc2)c2ccccc2)CC1 | inactive: -0.925%
O=C(NCC1(N2CCCCC2)CCCCC1)c1cccc(Br)c1 | inactive: -0.513%
CCN1CCCC(OC(=O)C2(O)c3ccccc3C=Cc3ccccc32)C1 (stereo unspecified) | inactive: -2.2%
Cc1cc(C(=O)NCC2(N3CCCCC3)CCCCC2)ccc1[N+](=O)[O-] | inactive: 0.225%
COc1ccc(C(=O)NCC2(N(C)C)CCCCC2)cc1 | inactive: -0.0208%
CN(C)C1(CNC(=O)c2ccc(Br)cc2)CCCCC1 | inactive: -1.04%
COc1cc(C(=O)NCC2(N(C)C)CCCCC2)c([N+](=O)[O-])cc1OC | inactive: -0.456%
COc1ccc(Cl)cc1C(=O)NCC1(N(C)C)CCCCC1 | inactive: -0.945%
COc1cccc(C(=O)NCC2(N3CCCCC3)CCCCC2)c1 | inactive: -2.3%
O=C(NCC1(N2CCCCC2)CCCCC1)c1cccc(Cl)c1 | inactive: -0.701%
O=C(OC1CN2CCC1CC2)C(CO)(c1ccccc1)c1ccccc1 (stereo unspecified) | inactive: -0.0851%
COc1ccc(Br)c(C(=O)NCC2(N3CCCCC3)CCCCC2)c1 | inactive: 9.59%
C=C(C)C#CC(O)(C(=O)OC1CCN(C)CC1)c1ccccc1 (stereo unspecified) | inactive: -0.259%
CN(C)c1cccc(C(=O)NCC2(N(C)C)CCCCC2)c1 | inactive: -0.259%
O=C(OCCN1CCCC1)C(O)(c1ccccc1)c1ccccc1 | inactive: -1.01%
CC(C)Oc1ccc(C(=O)NCC2(N(C)C)CCCCC2)cc1 | inactive: -1.7%
